US20020004485A1 (University of California, published 2002)

By UniProt entry, the sequences of proteins in these tests, tags left out. Where a name states a change or a piece, a line headed by the entry shows the natural chain unless it says otherwise.
UniProt P41968: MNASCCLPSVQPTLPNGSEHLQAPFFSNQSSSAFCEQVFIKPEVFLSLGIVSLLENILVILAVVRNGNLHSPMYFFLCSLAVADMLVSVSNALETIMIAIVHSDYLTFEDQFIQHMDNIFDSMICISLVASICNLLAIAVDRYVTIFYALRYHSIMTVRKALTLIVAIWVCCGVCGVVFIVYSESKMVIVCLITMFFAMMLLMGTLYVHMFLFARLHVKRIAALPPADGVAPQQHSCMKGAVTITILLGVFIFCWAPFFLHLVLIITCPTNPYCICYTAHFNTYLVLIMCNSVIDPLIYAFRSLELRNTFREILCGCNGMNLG
UniProt Q64326: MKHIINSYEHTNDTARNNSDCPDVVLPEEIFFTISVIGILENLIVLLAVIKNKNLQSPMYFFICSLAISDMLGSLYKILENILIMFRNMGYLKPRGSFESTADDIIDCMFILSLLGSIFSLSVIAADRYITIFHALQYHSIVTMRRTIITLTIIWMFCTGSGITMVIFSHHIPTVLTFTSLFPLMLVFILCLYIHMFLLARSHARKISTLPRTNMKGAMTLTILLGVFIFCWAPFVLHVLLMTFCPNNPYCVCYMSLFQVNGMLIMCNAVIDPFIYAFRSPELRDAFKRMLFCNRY
UniProt P01189: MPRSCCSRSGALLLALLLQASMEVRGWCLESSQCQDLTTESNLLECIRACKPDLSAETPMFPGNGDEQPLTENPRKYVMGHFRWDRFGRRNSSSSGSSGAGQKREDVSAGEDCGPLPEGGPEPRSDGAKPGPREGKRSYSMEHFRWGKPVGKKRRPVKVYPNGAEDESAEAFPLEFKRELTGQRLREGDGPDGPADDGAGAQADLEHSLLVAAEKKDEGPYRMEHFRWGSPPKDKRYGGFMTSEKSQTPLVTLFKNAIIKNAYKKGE

Legend:
human MCR-3 receptor = human MCR-3 receptor (human, UniProt P41968 1-323); assay: cell-based or functional assay
[1] = target: ACTH (MCR-2) receptor endogenous to murine Y1 adrenocortical cells (murine, UniProt Q64326 1-296); assay: cell-based or functional assay

| Binder | EC50 of α-MSH alone, cAMP in HEK cells expressing MCR-3 (human MCR-3 receptor) [nM] | EC50 of ACTH-(1-24) alone, cAMP in Y1 cells [1] [nM] |
| --- | --- | --- |
| SYSMEHFRWGKPV (ligand, UniProt P01189 138-150, looked up) [α-melanocyte stimulating hormone] | 4.2 | – |
| SYSMEHFRWGKPVGKKRRPVKVYP (ligand, UniProt P01189 138-161, looked up) [ACTH-(1-24)] | – | 1.8 |
